Legend:
ROS1 = ROS1 (Homo sapiens (Human), UniProt P08922); experiment: Radio-tagged HotSpot kinase assay, ROS1; details: read-out: ROS1 (IC50/nM); 33P-ATP, 120 min, room temperature
Ba/F3-CD74-ROS1-G2032R = experiment: Inhibition of cell proliferation (CellTiter-Glo), Ba/F3-CD74-ROS1-G2032R; details: read-out: Ba/F3-CD74-ROS1-G2032R (IC50/nM), 72 hours
ROS1 (G2032R) = ROS1 (G2032R) (Homo sapiens (Human), UniProt P08922, G2032R); experiment: Radio-tagged HotSpot kinase assay, ROS1 (G2032R); details: read-out: ROS1 (G2032R) (IC50/nM); 33P-ATP, 120 min, room temperature
TRKC = TRKC (Homo sapiens (Human), UniProt Q16288); experiment: Radio-tagged HotSpot kinase assay, TRKC; details: read-out: TRKC (IC50/nM); 33P-ATP, 120 min, room temperature
Ba/F3-LMNA-NTRK1-G595R = experiment: Inhibition of cell proliferation (CellTiter-Glo), Ba/F3-LMNA-NTRK1-G595R; details: read-out: Ba/F3-LMNA-NTRK1-G595R (IC50/nM), 72 hours
Ba/F3-CD74-ROS1 = experiment: Inhibition of cell proliferation (CellTiter-Glo), Ba/F3-CD74-ROS1; details: read-out: Ba/F3-CD74-ROS1 (IC50/nM), 72 hours
Ba/F3-LMNA-NTRK1 = experiment: Inhibition of cell proliferation (CellTiter-Glo), Ba/F3-LMNA-NTRK1; details: read-out: Ba/F3-LMNA-NTRK1 (IC50/nM), 72 hours

Protein sequences, listed by entry. Tags and fused reporters are not part of them. Lines headed by an entry give the natural chain unless they say otherwise; changes in a name come on top. Residues count along the entry.
UniProt P08922, 28-2347 limits assumed: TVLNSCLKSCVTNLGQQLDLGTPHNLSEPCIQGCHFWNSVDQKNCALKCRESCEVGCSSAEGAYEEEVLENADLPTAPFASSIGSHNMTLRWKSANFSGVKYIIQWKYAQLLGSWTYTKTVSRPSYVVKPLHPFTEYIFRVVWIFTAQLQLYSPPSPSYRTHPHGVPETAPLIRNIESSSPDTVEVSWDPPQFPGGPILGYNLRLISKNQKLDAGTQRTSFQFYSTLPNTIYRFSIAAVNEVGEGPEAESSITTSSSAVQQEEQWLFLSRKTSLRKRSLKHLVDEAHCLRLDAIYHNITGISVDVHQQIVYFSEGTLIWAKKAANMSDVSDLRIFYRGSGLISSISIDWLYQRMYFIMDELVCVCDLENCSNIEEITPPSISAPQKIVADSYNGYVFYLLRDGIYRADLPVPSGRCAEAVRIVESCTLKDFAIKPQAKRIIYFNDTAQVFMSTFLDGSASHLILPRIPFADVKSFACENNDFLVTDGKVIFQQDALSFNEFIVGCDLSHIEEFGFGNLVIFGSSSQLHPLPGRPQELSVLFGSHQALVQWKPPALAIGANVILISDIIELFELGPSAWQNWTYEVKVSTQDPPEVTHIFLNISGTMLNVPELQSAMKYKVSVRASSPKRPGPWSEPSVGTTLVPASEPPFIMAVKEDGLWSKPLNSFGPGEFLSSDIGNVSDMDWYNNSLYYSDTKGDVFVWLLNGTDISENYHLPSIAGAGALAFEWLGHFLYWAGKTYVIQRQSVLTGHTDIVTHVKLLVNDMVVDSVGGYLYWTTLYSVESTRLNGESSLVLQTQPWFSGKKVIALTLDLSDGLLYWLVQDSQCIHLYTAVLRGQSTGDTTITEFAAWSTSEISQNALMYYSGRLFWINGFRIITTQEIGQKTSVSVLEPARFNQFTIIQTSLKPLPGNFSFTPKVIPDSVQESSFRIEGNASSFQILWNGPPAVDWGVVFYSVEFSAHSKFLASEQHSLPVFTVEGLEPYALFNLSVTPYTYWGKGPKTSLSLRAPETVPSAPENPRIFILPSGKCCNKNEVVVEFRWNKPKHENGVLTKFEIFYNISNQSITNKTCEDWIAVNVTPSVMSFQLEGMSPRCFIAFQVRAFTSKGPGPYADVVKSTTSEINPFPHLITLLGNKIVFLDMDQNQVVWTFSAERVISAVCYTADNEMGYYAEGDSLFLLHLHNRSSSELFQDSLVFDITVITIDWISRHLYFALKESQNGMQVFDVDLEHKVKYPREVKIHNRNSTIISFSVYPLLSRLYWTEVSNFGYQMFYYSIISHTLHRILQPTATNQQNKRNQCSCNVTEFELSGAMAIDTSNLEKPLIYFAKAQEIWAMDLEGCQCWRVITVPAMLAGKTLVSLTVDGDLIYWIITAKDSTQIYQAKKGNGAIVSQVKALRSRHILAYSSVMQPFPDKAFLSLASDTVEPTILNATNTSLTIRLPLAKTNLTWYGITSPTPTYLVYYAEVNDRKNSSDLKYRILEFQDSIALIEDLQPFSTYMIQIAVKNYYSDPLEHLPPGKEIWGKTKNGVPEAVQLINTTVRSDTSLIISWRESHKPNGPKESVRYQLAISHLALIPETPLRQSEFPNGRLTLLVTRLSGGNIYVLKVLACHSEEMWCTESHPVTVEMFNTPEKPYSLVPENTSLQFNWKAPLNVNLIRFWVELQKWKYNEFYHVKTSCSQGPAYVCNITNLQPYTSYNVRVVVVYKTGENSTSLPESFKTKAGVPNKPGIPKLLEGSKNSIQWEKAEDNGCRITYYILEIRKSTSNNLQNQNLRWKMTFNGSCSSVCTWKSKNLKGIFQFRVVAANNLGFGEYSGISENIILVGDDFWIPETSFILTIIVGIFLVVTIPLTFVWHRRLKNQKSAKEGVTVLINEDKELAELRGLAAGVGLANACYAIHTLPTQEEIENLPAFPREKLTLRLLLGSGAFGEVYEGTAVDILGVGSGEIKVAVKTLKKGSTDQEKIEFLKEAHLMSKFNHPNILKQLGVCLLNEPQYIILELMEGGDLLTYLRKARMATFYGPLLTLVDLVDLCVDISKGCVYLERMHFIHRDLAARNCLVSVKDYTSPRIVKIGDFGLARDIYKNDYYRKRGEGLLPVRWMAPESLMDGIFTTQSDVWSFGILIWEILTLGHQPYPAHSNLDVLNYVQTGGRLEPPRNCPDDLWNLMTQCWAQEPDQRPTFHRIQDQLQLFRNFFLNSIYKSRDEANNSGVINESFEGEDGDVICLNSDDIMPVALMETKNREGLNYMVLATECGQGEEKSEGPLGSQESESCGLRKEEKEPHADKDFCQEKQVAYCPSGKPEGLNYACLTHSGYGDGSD
UniProt P08922, 28-2347 G2032R limits assumed: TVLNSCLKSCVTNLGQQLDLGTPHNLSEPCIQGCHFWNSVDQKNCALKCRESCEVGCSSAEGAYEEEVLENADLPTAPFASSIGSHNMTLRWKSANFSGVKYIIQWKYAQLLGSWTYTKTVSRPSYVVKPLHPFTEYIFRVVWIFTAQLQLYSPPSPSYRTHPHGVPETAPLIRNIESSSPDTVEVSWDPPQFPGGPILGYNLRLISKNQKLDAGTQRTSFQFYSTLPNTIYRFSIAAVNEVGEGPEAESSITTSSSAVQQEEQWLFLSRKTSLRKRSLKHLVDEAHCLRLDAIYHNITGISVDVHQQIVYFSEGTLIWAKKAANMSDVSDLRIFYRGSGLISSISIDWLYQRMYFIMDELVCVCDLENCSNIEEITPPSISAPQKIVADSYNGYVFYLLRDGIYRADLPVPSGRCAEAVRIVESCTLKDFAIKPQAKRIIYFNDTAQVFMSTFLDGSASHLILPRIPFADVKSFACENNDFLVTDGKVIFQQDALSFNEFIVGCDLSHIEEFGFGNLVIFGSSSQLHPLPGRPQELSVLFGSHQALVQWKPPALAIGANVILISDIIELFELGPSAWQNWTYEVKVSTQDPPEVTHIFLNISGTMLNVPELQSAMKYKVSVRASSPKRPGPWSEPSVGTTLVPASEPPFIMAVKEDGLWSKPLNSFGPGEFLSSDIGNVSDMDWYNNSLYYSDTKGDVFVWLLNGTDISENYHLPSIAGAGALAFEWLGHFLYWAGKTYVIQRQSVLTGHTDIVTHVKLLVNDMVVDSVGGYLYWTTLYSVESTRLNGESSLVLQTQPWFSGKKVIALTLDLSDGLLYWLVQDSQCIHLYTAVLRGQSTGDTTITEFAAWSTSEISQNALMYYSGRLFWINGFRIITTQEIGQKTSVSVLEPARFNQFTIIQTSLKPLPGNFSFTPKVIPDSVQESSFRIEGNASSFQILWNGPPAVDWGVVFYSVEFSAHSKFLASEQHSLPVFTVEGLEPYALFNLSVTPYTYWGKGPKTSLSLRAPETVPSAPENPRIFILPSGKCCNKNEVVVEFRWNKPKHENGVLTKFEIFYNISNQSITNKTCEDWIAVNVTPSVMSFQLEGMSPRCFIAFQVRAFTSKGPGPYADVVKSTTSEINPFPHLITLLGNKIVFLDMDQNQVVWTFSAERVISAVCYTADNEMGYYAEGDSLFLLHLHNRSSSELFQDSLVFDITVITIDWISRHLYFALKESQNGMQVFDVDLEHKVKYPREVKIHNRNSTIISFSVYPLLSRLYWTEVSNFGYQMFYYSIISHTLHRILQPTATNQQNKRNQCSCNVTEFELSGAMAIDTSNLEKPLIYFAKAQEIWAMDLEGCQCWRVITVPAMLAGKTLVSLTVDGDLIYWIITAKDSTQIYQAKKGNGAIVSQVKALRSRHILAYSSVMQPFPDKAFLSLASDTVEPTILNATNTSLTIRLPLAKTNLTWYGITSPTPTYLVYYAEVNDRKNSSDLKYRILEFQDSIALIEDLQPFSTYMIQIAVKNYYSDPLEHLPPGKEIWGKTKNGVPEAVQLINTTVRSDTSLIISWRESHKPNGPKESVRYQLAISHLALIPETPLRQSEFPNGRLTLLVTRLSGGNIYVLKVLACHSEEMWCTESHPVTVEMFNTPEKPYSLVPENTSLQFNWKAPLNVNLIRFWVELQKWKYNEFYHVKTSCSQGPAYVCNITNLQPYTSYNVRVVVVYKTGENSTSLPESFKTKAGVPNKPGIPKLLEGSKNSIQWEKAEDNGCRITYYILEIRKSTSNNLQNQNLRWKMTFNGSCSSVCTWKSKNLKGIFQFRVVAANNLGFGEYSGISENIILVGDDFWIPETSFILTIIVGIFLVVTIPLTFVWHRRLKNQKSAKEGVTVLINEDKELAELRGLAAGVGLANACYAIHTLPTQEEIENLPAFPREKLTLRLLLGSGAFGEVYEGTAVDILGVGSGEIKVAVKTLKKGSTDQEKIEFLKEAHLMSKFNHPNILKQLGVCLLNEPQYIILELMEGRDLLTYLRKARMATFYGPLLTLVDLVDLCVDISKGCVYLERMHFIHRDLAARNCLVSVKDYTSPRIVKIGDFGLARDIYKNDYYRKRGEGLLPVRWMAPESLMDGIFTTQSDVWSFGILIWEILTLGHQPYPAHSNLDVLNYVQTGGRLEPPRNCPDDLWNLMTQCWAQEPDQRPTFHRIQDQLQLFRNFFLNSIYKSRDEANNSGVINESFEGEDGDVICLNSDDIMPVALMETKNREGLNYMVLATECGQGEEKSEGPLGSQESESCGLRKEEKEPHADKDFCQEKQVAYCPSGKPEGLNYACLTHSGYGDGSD
UniProt Q16288, 32-839 limits assumed: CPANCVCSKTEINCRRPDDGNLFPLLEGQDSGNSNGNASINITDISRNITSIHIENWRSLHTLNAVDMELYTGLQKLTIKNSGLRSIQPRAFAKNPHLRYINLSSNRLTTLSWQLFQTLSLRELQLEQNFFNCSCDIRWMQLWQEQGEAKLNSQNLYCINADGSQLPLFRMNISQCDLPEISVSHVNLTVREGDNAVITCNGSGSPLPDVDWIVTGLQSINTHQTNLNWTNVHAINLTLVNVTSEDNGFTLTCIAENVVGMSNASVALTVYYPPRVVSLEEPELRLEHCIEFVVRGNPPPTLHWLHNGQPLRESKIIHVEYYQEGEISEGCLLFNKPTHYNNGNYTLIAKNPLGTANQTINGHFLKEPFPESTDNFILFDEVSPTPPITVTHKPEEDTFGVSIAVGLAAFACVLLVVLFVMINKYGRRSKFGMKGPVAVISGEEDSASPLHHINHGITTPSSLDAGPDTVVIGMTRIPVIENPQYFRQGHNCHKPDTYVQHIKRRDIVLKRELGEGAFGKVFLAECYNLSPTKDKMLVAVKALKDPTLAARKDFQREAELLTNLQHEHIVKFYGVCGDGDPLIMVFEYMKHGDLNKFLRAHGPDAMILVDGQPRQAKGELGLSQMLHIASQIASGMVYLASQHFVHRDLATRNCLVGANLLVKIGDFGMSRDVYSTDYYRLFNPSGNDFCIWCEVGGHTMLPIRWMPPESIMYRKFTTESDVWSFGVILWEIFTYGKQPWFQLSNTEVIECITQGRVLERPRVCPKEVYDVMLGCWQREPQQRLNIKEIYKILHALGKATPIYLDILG

- IC50 (ROS1): < 0.5 nM
- IC50 (Ba/F3-CD74-ROS1-G2032R): 38.9 nM
- IC50 (ROS1 (G2032R)): < 0.5 nM
- IC50 (TRKC): < 0.5 nM
- IC50 (Ba/F3-LMNA-NTRK1-G595R): 45.3 nM
- IC50 (Ba/F3-CD74-ROS1): 4.5 nM
- IC50 (Ba/F3-LMNA-NTRK1): 26.2 nM
SMILES: COc1ccc(F)cc1[C@@H](C)Nc1ccn2ncc(C3=NOC4(CCN(S(C)(=O)=O)CC4)N3)c2n1

From patent publication US12435089B2, “3-oxadiazolyl substituted pyrazolo[1,5,a]pyrimidines for ROS1, NTRK, and ALK mediated diseases” (TYK MEDICINES, INC., priority 2019, dated 2025)
